Assay results as given in patent US9309308B2, “Monoclonal antibodies for tumor treatment” (CURETECH LTD., priority 2008, dated 2016).

Tests used:
[1] = test system: naïve CD4+CD45RO− T cells; experiment: Cell viability assay, human naïve T cells; conditions: hBAT at 1 ug/ml, 72 and 96 hours; FIG. 18
[2] = test system: human CD4+CD45RO+ effector/memory T cells; experiment: Cell viability assay, human effector/memory T cells; conditions: hBAT at 1 ug/ml, 72 and 96 hours; FIG. 18

## hBAT-1: humanized monoclonal antibody with CDRs of murine mBAT-1 and human framework regions
[1]
  survival of lymphocytes (% difference in cell survival): but not that of naïve CD4+CD45RO− lymphocytes
[2]
  survival of lymphocytes (% difference in cell survival): significant effect in enhancing the survival
